From patent US8329686B2, “Isatin analogues and uses therefor” (Washington University, priority 2006, dated 2012)
Read-outs that look alike come from different tables or passages of the source.

How the values were obtained:
caspase-3 = target: T1, caspase-3 (Homo sapiens, UniProt P42574); experiment: Enzyme inhibition assay, caspase 3 (fluorogenic Ac-DEVD-AMC); type: biochemical
T1 construct: purchased Sigma-Aldrich (St. Louis, Mo.)
T1 sequence (P42574 29-175 limits assumed): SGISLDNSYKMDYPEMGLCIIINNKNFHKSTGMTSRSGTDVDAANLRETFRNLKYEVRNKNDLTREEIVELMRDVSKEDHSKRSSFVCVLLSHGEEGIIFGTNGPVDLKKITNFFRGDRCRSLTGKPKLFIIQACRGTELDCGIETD
T1 sequence (P42574 176-277 limits assumed): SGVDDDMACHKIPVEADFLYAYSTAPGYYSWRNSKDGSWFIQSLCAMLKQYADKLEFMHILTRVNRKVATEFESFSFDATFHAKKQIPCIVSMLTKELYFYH

caspase 6 = target: T2, caspase 6 (Homo sapiens, UniProt P55212); experiment: Enzyme inhibition assay, caspase 6 (fluorogenic Ac-VEID-AMC); type: biochemical
T2 construct: purchased Sigma-Aldrich (St. Louis, Mo.)
T2 sequence (P55212 24-179 limits assumed): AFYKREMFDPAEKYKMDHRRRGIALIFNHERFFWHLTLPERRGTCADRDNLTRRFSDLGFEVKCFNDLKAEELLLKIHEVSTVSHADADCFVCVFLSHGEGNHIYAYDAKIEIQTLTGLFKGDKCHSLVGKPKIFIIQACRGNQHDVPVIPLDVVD
T2 sequence (P55212 194-293 limits assumed): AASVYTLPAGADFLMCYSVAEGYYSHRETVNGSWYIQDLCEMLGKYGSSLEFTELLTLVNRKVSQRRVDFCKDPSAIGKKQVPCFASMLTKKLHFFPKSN

Row | Compound | IC50 (caspase-3) [nM] | IC50 (caspase-3; Table 2, read-out: IC50 (nM) Caspase 3) [nM] | IC50 (caspase 6; Table 1) [nM] | IC50 (caspase 6; Table 2) [nM]
1 | CC(=O)N[C@@H](CC(=O)O)C(=O)N[C@@H](CCC(=O)O)C(=O)N[C@H](C(=O)N[C@H](C=O)CC(=O)O)C(C)C [Ac-DEVD-CHO, reference compound] | 4.8 ± 2 | 3.8 ± 0.8 | – | –
2 | CC[C@H](C)[C@H](NC(=O)[C@H](CCC(=O)O)NC(=O)[C@@H](NC(C)=O)C(C)C)C(=O)N[C@H](C=O)CC(=O)O [Ac-VEID-CHO, reference compound] | – | – | 60.5 ± 7.6 | 9.6 ± 2.1
